Results published in US8383609B2, “Phosphorus containing heterocyclic compounds, sugar analogues, and compositions having anti-cancer activity containing the same” (Centre National de la Recherche Scientifique, priority 2007, dated 2013).

Experiments:
[1] = system: spontaneously converted astrocytes collected from the cortex of a newborn rat; experiment: Cytotoxicity on the spontaneously converted astrocytes (qualitative assay, microscopic observation); assay type: cell-based; settings: microscopic observation each day for four days, 50 μM to 400 nM
Text: a) Spontaneously converted astrocytes collected from the cortex of a newborn rat (see Bochelen D., Langley K., Adamczyk M., Kupfberg, Hor F., Vincendon G., Mersel M., J. Neurosci. Res., 2000, 62, 99-111), that is to say from normal glial cells maintained in culture and that became able to divide to infinity. These cells are not able to induce tumors after implantation in the rat but did avoid the cell cycle regulation. This cell line was maintained in culture in culture flasks in the presence of 5 mL of culture medium MH5 comprising 70% of MEM and 30% of a Hanks solution. This medium was supplemented with 5% of foetal calf serum. The culture medium was changed every three days. Cells were incubated at 37° C. in an air/CO2 atmosphere (95/5). For the experiments, a replanting was effected after removal of the culture medium, cells were treated for 4 to 5 minutes with trypsine (0.1%). The cell suspension was then placed in 5 mL of fresh medium, 50 μL of this solution were collected to perform the cell counting. Once the expected dilution had been obtained, the 96-well culture plates were seeded, the culture volume being 200 μL.
These assays conducted on compounds 3.28, 3.8, 3.5. […] The effect was evaluated by simple microscopic observation of the culture plates. This evaluation consisted in observing each day and for four days, at concentrations ranging from 50 μM to 400 nM. The evaluated compounds did present an activity at a very low concentration. An activity could be observed after 72 h to 96 h (days 3 and 4) for the whole evaluated compounds.

[2] = system: astrocyte primary cultures from the cortex of a newborn rat; experiment: Cytotoxicity on the non modified astrocytes, so called healthy cells (quantitative assay); settings: second day after addition, 50 μM to 24 nM

Row | Substance | cytotoxic activity on spontaneously converted astrocytes [1] | cytotoxicity on healthy cells (cell viability) [2]
1 | 4-(2,2-Dimethyl-[1,3]dioxolan-4-yl)-2,2-dimethyl-2-oxo-2-phenyl-tetrahydro-6λ*5*-[1,3]dioxolo[4,5-d][1,2]oxaphosphinin-3-mesyl [Compound 3.8] | cytotoxic activity | –
2 | 4-(2,2-Dimethyl-[1,3]dioxolan-4-yl)-2,2-dimethyl-2-oxo-2-phenyl-tetrahydro-6λ*5*-[1,3]dioxolo[4,5-d][1,2]oxaphosphinin-3-tosyl [Compound 3.5] | cytotoxic activity | –
3 | 6-(1,2-dihydroxy-ethyl)-2,2-dimethyl-2-oxo-2-diethoxymethyl-tetrahydro-6λ*5*-[1,3]dioxolo[4,5-d][1,2]oxaphosphinan-3-tosyl [Compound 3.6] | cytotoxic activity | absence of cytotoxicity
4 | 6-(1,2-dihydroxy-ethyl)-2-oxo-2-phenyl-2λ*5*-[1,2]oxaphosphinane-4,5-diol-3-tosyl [Compound 3.7] | cytotoxic activity | –
